Test results reported in ChEMBL document CHEMBL5725595, “Indole carboxamide derivatives as P2X7 receptor antagonists” (2017).

Protein sequences, listed by entry. Tags and fused reporters are not part of them. Lines headed by an entry give the natural chain unless they say otherwise; changes in a name come on top.
UniProt Q99572, whole entry: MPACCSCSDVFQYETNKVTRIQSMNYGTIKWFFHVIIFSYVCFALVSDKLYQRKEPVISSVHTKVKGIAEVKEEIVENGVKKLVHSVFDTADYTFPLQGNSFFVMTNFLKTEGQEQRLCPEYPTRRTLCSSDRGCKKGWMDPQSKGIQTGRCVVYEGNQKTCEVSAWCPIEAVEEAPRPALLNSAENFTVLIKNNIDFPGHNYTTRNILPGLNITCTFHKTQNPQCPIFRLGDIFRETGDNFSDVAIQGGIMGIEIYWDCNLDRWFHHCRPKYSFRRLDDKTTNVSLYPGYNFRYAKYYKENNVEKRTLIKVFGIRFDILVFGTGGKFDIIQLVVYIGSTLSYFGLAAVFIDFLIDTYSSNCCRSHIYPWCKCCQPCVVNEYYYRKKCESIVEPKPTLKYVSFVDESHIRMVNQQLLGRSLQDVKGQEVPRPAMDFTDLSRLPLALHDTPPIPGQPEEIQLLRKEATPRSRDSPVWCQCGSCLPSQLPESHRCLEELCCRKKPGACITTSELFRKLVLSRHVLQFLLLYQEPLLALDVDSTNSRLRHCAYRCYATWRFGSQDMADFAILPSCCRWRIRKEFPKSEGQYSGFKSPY

Molecular target: P2X purinoceptor 7 (Homo sapiens, UniProt Q99572)

For NC1(CNC(=O)c2ccc3[nH]ccc3c2Cl)CCCCC1, the IC50 was 1560 nM.

This is a selection: effects in other tests are not listed, and their absence says nothing.
